Reference: patent USRE46942E1, “4-piperidinyl compounds for use as tankyrase inhibitors” (NOVARTIS AG, priority 2011, dated 2018)

Chains of the proteins cited; added tags and fusions are not shown. Residues count along the entry.
UniProt Q9H2K2, 959-1164: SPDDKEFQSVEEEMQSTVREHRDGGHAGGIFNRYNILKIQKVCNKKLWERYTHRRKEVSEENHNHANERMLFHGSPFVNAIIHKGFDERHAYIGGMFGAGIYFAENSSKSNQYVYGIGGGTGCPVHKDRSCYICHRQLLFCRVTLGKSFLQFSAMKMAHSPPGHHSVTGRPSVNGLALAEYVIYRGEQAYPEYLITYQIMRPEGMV

Molecular target: TNKS2 (GST-tagged tankyrase 2 PARP domain, TNKS2P) (Homo sapiens (Human), UniProt Q9H2K2)
Experiment: TNKS2 autoparsylation (AP) enzyme assay, LC/MS detection of nicotinamide
Assay type: biochemical
Conditions: 60 min, room temperature
Description: The human tankyrase 1 PARP catalytic domain, TNKS1P, was cloned into a pDONR221 vector using the Invitrogen Gateway Technology. This entry clone was then subcloned into the destination vector pDEST20 to obtain the N-terminal Glutathione S-transferase (GST)-tagged fusion protein.
The autoparsylation activity of the TNKS 1/2 or PARP1/2 enzymes was measured by the liquid chromatography-mass spectrometry (LC/MS) detection of nicotinamide as readout.

SMILES | IC50 [nM]
COc1ccc(C(=O)C2CCN([C@@H]3CCN(CC(=O)Nc4nnc5n4CCS5)C3=O)CC2)cc1 (single isomer, unassigned) [Example 34] | 16 ± 1
COc1ccc2c(c1)CC1(CCN([C@H]3CCN(Cc4nc5c(c(=O)[nH]4)COCC5)C3=O)CC1)C2=O [Example 16, (S)-2-((3-(5-methoxy-1-oxo-1,3-dihydrospiro[indene-2,4′-piperidine]-1′-yl)-2-oxopyrrolidin-1-yl)methyl)-7,8-dihydro-3H-pyrano[4,3-d]pyrimidin-4(5H)-one] | < 8.6
COc1ccc2c(c1)CC1(CCN([C@@H]3CCN(Cc4nc5c(c(=O)[nH]4)COCC5)C3=O)CC1)C2=O [Example 17, (R)-2-((3-(5-methoxy-1-oxo-1,3-dihydrospiro[indene-2,4′-piperidine]-1′-yl)-2-oxopyrrolidin-1-yl)methyl)-7,8-dihydro-3H-pyrano[4,3-d]pyrimidin-4(5H)-one] | 1720 ± 120
COc1ccc(C(=O)C2CCN([C@H]3CCN(CC(=O)Nc4nnc5n4CCS5)C3=O)CC2)cc1 [Example 33, N-(5,6-dihydrothiazolo[2,3-c][1,2,4]triazol-3-yl)-2-((S)-3-(4-(4-methoxybenzoyl)piperidin-1-yl)-2-oxopyrrolidin-1-yl)acetamide] | 374 ± 2
